From EP4846860A1, “DNA METHYLATION PROMOTER, ORAL COMPOSITION FOR PROMOTING DNA METHYLATION, AND USE OF COMPOUND” (dated 2026)

How the values were obtained:
TIG-107 cells = experiment: Test Examples 2 and 3: anti-5-mC antibody fluorescent staining of TIG-107 cells; details: TIG-107 cells cultured for 4 days in the presence of 10 µg/ml compound; compared with TIG-107 in the absence of compound; FIG. 4, FIG. 5
Description: Cells were fixed with a 4% paraformaldehyde (PFA) solution and washed with phosphate-buffered saline (PBS). The obtained samples were treated with 2N HCl at 37°C for 15 minutes. The samples were washed with PBS, and treated with 1% Tx-100/PBS at room temperature for 2 minutes. After washing with PBS, the samples were treated with 1% bovine serum albumin (BSA). An anti-5-mC antibody (#28692, manufactured by Cell Signaling technology) was diluted 1:4000 in 1% BSA-PBS and used as a primary antibody. The primary antibody was reacted with the samples at 25°C for 2 hours. After washing the samples with PBS, the samples were reacted at room temperature for 1 hour in the dark with a solution in which Alexa Fluor 488 anti-rabbit IgG (manufactured by Invitrogen) and 3 mM DAPI were diluted 1:2000 in 1% BSA-PBS. The samples were washed with PBS and rinsed with dH2O, followed by embedding with a cover glass and observation with BZ-X810 (manufactured by Keyence).
TIG-107 cells (JCRB0532) and TIG-120 cells (JCRB0542) were obtained from the JCRB Cell Bank. TIG-107 cells were cultured for 4 days in DMEM (manufactured by Sigma-Aldrich) containing 10% FCS (manufactured by Sigma-Aldrich), 100 units/ml penicillin, and 100 µg/ml streptomycin (manufactured by Nacalai) in the presence of 10 µg/ml KIT-13 (TIG-107 + KIT-13) or in the absence of KIT-13 (TIG-107). As a control, TIG-120 cells were cultured for 4 days in the same medium in the absence of KIT-13 (TIG-120). As in Test Example 1, fluorescent staining images of the samples prepared from the cultured cells were observed.
TIG-107 cells were cultured for 4 days in DMEM (manufactured by Sigma-Aldrich) containing 10% FCS (manufactured by Sigma-Aldrich), 100 units/ml penicillin, and 100 µg/ml streptomycin (manufactured by Nacalai) in the presence of 10 µg/ml KIT-18, in the presence of 10 µg/ml KIT-24 or in the absence of these (-). As in Test Example 1, fluorescent staining images of the samples prepared from the cultured cells were observed, and anti-5-mC antibody positivity rates were determined from the fluorescent staining images.

BV2/shMeCP2 = experiment: Test Example 1: anti-5-mC antibody fluorescent staining of MeCP2-knockdown BV2 cells; details: BV2/shMeCP2 cultured for 2 days in the presence of 5 µg/ml KIT-13; compared with shMeCP2 in the absence of KIT-13; FIG. 2
Description: In the following, a vector that expresses shRNA targeting mouse MeCP2 (NM_010788) (catalog number: TRCN0000304464, manufactured by Sigma) was used as "shMeCP2 vector". An amplification product from shMeCP2 vector was obtained by PCR to prepare a vector excluding the MeCP2-targeting sequence. The vector was designated as "shCont. vector". The PCR was carried out using a forward primer and a reverse primer for shMeCP2 vector having the base sequences of SEQ ID NO:1 and SEQ ID NO:2, respectively.
Mouse glial cell derived BV2 cells cultured in Dulbecco's Modified Eagle Medium (DMEM, manufactured by Sigma-Aldrich) supplemented with 10% fetal calf serum (FCS, manufactured by Sigma-Aldrich) were transfected with either the shMeCP2 vector or the shCont. vector. By utilization of the puromycin resistance gene contained in the vector, puromycin-resistant lines (concentration of puromycin, 1 µg/ml) were separated. The resulting cells were designated as BV2/shMeCP2 and BV2/shCont., respectively.
BV2/shMeCP2 was cultured for 2 days in DMEM (manufactured by Sigma-Aldrich) containing 10% FCS (manufactured by Sigma-Aldrich), 100 units/ml penicillin, and 100 µg/ml streptomycin (manufactured by Nacalai) in the presence of 5 µg/ml KIT-13 (shMeCP2 + KIT-13) or in the absence of KIT-13 (shMeCP2). As a control, BV2/shCont. was cultured for 2 days in the same medium in the absence of KIT-13 (shCont.). […]

| SMILES | cells positive for 5-methylcytosine (anti-5-mC antibody positivity rates) (TIG-107 cells) | fluorescence intensity derived from 5-methylcytosine (BV2/shMeCP2) |
| --- | --- | --- |
| CCCCCCCC/C=C\CCCCCCCC(=O)O[C@H](COCCCCCCCCCCCCCCCCCC)COP(=O)(O)OCCN.O=C(O)C(F)(F)F | significantly increased |  |
| CCCCC/C=C\C/C=C\C/C=C\C/C=C\CCCC(=O)O[C@H](COCCCCCCCCCCCCCCCCCC)COP(=O)(O)OCCN | significantly increased | significantly increased |
| CCCCCCCCCCCCCCCCCCOC[C@H](COP(=O)(O)OCCN)OC(=O)CCCCCCCCCCCCCCC.O=C(O)C(F)(F)F | significantly increased |  |
